# Results reported in PubChem BioAssay AID720702 (The Scripps Research Institute Molecular Screening Center, 2013).
# By UniProt entry, the sequences of proteins in these tests, tags left out.
# UniProt O95551, whole entry: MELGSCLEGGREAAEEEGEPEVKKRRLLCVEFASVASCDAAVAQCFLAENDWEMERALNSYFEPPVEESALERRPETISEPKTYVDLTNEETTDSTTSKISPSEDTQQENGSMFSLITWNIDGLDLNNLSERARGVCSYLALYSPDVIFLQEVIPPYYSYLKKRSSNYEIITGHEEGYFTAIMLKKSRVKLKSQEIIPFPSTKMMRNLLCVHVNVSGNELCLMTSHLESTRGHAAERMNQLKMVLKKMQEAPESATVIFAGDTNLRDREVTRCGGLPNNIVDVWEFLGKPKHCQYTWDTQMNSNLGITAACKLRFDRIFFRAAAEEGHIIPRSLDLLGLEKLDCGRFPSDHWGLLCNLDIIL
# This is a selection; strong and weak results do not stand in their true shares. Some structures show a salt or complex split into parts, the way the source records it. Calls of active or inactive are those of the source.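 How the source made its calls: active means inhibition above the mean of all tested compounds plus 3 SD, set per campaign (cut at about 25% in these data); inactive means the rest.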
# Molecular target: Tyrosyl-DNA phosphodiesterase 2 (Homo sapiens) (UniProt O95551)
# Test: blockers of TDP2 phosphodiesterase activity – biochemical, epi absorbance, recombinant enzyme, primary screen (AID 720702);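 further: 0% = DMSO with enzyme and 100% = buffer with substrate but no TDP2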
# Details: recombinant TDP2, T5PNP hydrolysis, p-nitrophenol absorbance 415 nm; at 12.8 µM; hits give high values
# How it was run: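 Evaluation: % inhibition relative to enzyme-containing and enzyme-free wells. Material: recombinant human TDP2. Benchmarks: enzyme-free and DMSO wells. Timing: enzyme reaction with compound for 2 h at 37 °C. Compound dosing: 12.8 µM only. Measured by: p-Nitrophenol epi absorbance. Reagent: T5PNP substrate at 5 mM, a TopII-DNA adduct mimic. Replication: single well per compound.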
row,Structure (SMILES),inhibition
1,Cc1cc(C)cc(OP(C)(=O)Nc2ccc(SC(F)(F)F)cc2)c1 (centres undefined),inactive: 2.64%
2,CCc1ccc(OP(C)(=O)N2CCN(c3ccc([N+](=O)[O-])cc3)CC2)cc1 (centres undefined),inactive: -3.63%
3,CP(=O)(NC(=O)Nc1ccccc1)Oc1ccccc1 (centres undefined),inactive: 11.3%
4,CP(=O)(Oc1ccccc1)OC(c1ccccc1)C(F)(F)F (centres undefined),inactive: 0%
5,CP(=O)(Nc1ccc(SC(F)(F)F)cc1)Oc1ccc(Cl)cc1 (centres undefined),inactive: -8.26%
6,Cc1cccc(C)c1OP(C)(=O)Nc1ccc(SC(F)(F)F)cc1 (centres undefined),inactive: 6.29%
7,CP(=O)(Nc1ccccn1)Oc1ccc(Cl)cc1 (centres undefined),inactive: 2.75%
8,O=[N+]([O-])c1cc([N+](=O)[O-])c(O)c([N+](=O)[O-])c1.c1ccc(Oc2ccncc2)cc1,inactive: -5.29%
9,CCOC(=O)c1ccc(NP(C)(=O)Oc2ccc(OC)cc2)cc1 (centres undefined),inactive: 8.63%
10,CCOP(C)(=S)SCC(=O)NC(C)C(=O)O (centres undefined),inactive: -5.92%
11,CP(=O)(Nc1ccccc1Br)Oc1ccccc1 (centres undefined),inactive: -4.1%
12,COc1ccccc1OP(C)(=O)Nc1ccccc1 (centres undefined),inactive: 1.91%
13,CP(=S)(Nn1cnnc1)Oc1ccccc1 (centres undefined),inactive: 8.24%
14,O=[N+]([O-])c1ccc2c(c1)C=Nc1ccccc1O2,inactive: -2.66%
15,Cc1cccc(C)c1OP(C)(N)=O (centres undefined),inactive: -1.85%
16,CC(C)(C)c1ccc(OP(C)(=O)Nc2ccc(SC(F)(F)F)cc2)cc1 (centres undefined),inactive: 1.15%
17,O=[N+]([O-])c1cc([N+](=O)[O-])c(Nc2cccnc2)c([N+](=O)[O-])c1,inactive: 2.93%
18,Cc1cc(C)cc(OP(C)(N)=O)c1 (centres undefined),inactive: -11%
19,COc1ccc(OP(C)(=O)Nc2cccc(F)c2)cc1 (centres undefined),inactive: 5.39%
20,COc1ccccc1OP(C)(=O)Nc1cc(Cl)ccc1C (centres undefined),inactive: -1.58%
21,Cc1ccc(NP(C)(=O)Oc2ccccc2)c(C)c1 (centres undefined),inactive: 5.69%
22,COc1ccccc1OP(C)(=O)Nc1ccc(C)cc1 (centres undefined),inactive: -10.2%
23,CCOC(=O)c1ccc(NP(C)(=O)Oc2ccccc2)cc1 (centres undefined),inactive: 5.68%
24,CCN(CC)CCCOC(=O)C(O)(c1ccccc1)c1ccccc1,inactive: -9.85%
25,COc1ccccc1-c1ccccn1.O=[N+]([O-])c1cc([N+](=O)[O-])c(O)c([N+](=O)[O-])c1,inactive: 0.17%

row,Structure (SMILES),inhibition
1,CCOC(=O)c1ccc(NP(C)(=O)Oc2cc(C)cc(C)c2)cc1 (centres undefined),inactive: -11.6%
2,Cc1cc(C)cc(OP(C)(=O)Nc2ccc(C)cc2C)c1 (centres undefined),inactive: -15%
3,COc1ccccc1OP(C)(=O)Nc1cccc(Br)c1 (centres undefined),inactive: 10.7%
4,Cc1ccc(C)c(NP(C)(=O)Oc2ccccc2)c1 (centres undefined),inactive: 6.73%
5,CP(=O)(Nc1cccc(Br)c1)Oc1ccccc1 (centres undefined),inactive: 1.89%
6,Cc1cc(C)cc(OP(C)(=O)Nc2ccccn2)c1 (centres undefined),inactive: -5.06%
7,O=C(O)c1cccc(Nc2c([N+](=O)[O-])cc([N+](=O)[O-])cc2[N+](=O)[O-])c1,inactive: -16%
8,CC1=NCCc2c1[nH]c1ccccc21.O=[N+]([O-])c1cc([N+](=O)[O-])c(O)c([N+](=O)[O-])c1,inactive: 5.51%
9,CCOC(=O)C(CC)C1=NC(C)(C)Cc2ccccc21.O=[N+]([O-])c1cc([N+](=O)[O-])c(O)c([N+](=O)[O-])c1 (centres undefined),inactive: -8.48%
10,O=[N+]([O-])c1cc([N+](=O)[O-])c(Nc2nnnn2CCO)c([N+](=O)[O-])c1,inactive: -6.61%
11,COc1ccc(-c2ccccn2)cc1.O=[N+]([O-])c1cc([N+](=O)[O-])c(O)c([N+](=O)[O-])c1,inactive: -19%
12,CP(=O)(Nc1ccc(SC(F)(F)F)cc1)Oc1ccccc1 (centres undefined),inactive: -8.19%
13,CCCOc1ccc(NP(C)(=O)Oc2ccc(Cl)cc2)cc1 (centres undefined),inactive: -9.99%
14,CN1CCCCC1COC(=O)C1(O)c2ccccc2CCc2ccccc21 (centres undefined),inactive: -2.3%
15,COc1ccccc1OP(C)(=O)Nc1c(C)cccc1C (centres undefined),inactive: 3.76%
16,CN(Cc1cccnc1)C(=O)COc1ccc(Cl)c(Cl)c1.O=[N+]([O-])c1cc([N+](=O)[O-])c(O)c([N+](=O)[O-])c1,inactive: -6.9%
17,O=[N+]([O-])c1cc([N+](=O)[O-])c(-n2nnc3ccccc32)c([N+](=O)[O-])c1,inactive: -0.14%
18,Cc1nc2ccc3ccccc3c2s1.O=[N+]([O-])c1cc([N+](=O)[O-])c(O)c([N+](=O)[O-])c1,inactive: -10.2%
19,O=[N+]([O-])c1cc([N+](=O)[O-])c(-c2cnn(-c3ccccc3)c2)c([N+](=O)[O-])c1,inactive: -7.35%
20,CCOP(C)(=S)SCC(=O)NC(C)(CC)C(=O)O (centres undefined),inactive: 14.9%
21,CCOP(=O)(CC)OCC,inactive: 4.89%
22,CP(=O)(Nc1ccc(SC(F)(F)F)cc1)Oc1ccc(F)cc1 (centres undefined),inactive: -4.41%
23,Cc1ccccc1NP(C)(=O)Nc1ccccc1C,inactive: -10.4%
24,O=[N+]([O-])c1cc([N+](=O)[O-])c(C(F)(F)F)c([N+](=O)[O-])c1O,inactive: -17.8%
25,CP(=O)(Nc1ccc2c(c1)OCCO2)Oc1ccccc1 (centres undefined),inactive: 12.9%

row,Structure (SMILES),inhibition
1,CN(C)CCOC(=O)C(O)(c1ccccc1)C1CCCCC1 (centres undefined),inactive: 2.07%
2,COc1ccc(NP(C)(=O)Oc2ccccc2OC)cc1 (centres undefined),inactive: 10.6%
3,COc1ccc(OP(C)(=O)Nc2cccc(Br)c2)cc1 (centres undefined),inactive: -16%
4,Cc1c(C(c2ccc3c(c2)OCO3)c2c(C)n(C)n(-c3ccccc3)c2=O)c(=O)n(-c2ccccc2)n1C.O=[N+]([O-])c1cc([N+](=O)[O-])c(O)c([N+](=O)[O-])c1,inactive: 3.19%
5,O=[N+]([O-])c1ccc(OP2(=O)COCCO2)cc1 (centres undefined),inactive: 10.8%
6,Cc1cc(-c2cccc3ccccc23)c(C)cn1.O=[N+]([O-])c1cc([N+](=O)[O-])c(O)c([N+](=O)[O-])c1,inactive: -6.9%
7,O=[N+]([O-])c1cc([N+](=O)[O-])c(NCC2CCS(=O)(=O)C2)c([N+](=O)[O-])c1 (centres undefined),inactive: 11.3%
8,CCOC(=O)c1ccc(NP(C)(=O)Oc2ccc(F)cc2)cc1 (centres undefined),inactive: 5.1%
9,COc1ccc(OP(C)(=O)Nc2ccc(SC(F)(F)F)cc2)cc1 (centres undefined),inactive: 2.62%
10,CCN(CC)CCCNc1ccccc1[N+](=O)[O-].O=[N+]([O-])c1cc([N+](=O)[O-])c(O)c([N+](=O)[O-])c1,inactive: -12.1%
11,CP(=O)(Nc1ccccc1)Oc1ccc(F)cc1 (centres undefined),inactive: 7.31%
12,O=[N+]([O-])c1cc([N+](=O)[O-])c(OC2CCCCC2O)c([N+](=O)[O-])c1 (centres undefined),inactive: 0.29%
13,CCCCCOc1ccc(NP(C)(=O)Oc2ccc(Cl)cc2Cl)cc1 (centres undefined),inactive: 7.31%
14,Cc1c([N+](=O)[O-])cc([N+](=O)[O-])c(Br)c1[N+](=O)[O-],inactive: -12.5%
15,CCN(CC)CCCOC(=O)C(O)(c1ccccc1)C1CCCCC1 (centres undefined),inactive: -4.46%
16,CP(=O)(Nc1ccccc1F)Oc1ccccc1 (centres undefined),inactive: -11.4%
17,CC(C)c1ccc(OP(C)(=O)Nc2ccc(SC(F)(F)F)cc2)cc1 (centres undefined),inactive: -5.12%
18,O=[N+]([O-])c1cc([N+](=O)[O-])c(Nc2ccc(Cl)cc2)c([N+](=O)[O-])c1,inactive: -6%
19,COc1ccc2c(c1O)-c1c(O)c(OC)cc3c1[C@H](C2)[N+](C)(C)CC3.O=[N+]([O-])c1cc([N+](=O)[O-])c([O-])c([N+](=O)[O-])c1[O-],inactive: 1.96%
20,O=C(OC1CN2CCC1CC2)c1ccc([N+](=O)[O-])cc1 (centres undefined),inactive: -11.4%
21,O=C(OCCN1CCN(CCOCc2ccccc2)CC1)C(O)(c1ccccc1)c1ccccc1,inactive: 9.71%
22,COc1ccc(OP(C)(=O)Nc2ccccn2)cc1 (centres undefined),inactive: -3.09%
23,CN(C)CCOC(=O)C(O)(c1ccccc1)C1CCCC1 (centres undefined),inactive: -8.58%
24,COc1ccccc1OP(C)(=O)Nc1ccc(Br)cc1 (centres undefined),inactive: -6.12%
25,COc1ccccc1OP(C)(=O)Nc1ccc(C)cc1C (centres undefined),inactive: 2.99%

row,Structure (SMILES),inhibition
1,CP(=O)(Nc1ccccn1)Oc1ccccc1 (centres undefined),inactive: -6.82%
2,CCc1ccc(OP(C)(=O)O)cc1,inactive: 1.32%
3,O=[N+]([O-])c1cc([N+](=O)[O-])c(Nc2ccccn2)c([N+](=O)[O-])c1,inactive: 7.17%
4,Cc1c(NP(C)(=O)Oc2ccc(C(C)C)cc2)c(=O)n(-c2ccccc2)n1C (centres undefined),inactive: 2.19%
5,COc1ccccc1OP(C)(=O)Nc1ccc(C)c(C)c1 (centres undefined),inactive: 3.66%
6,COc1ccc(OP(C)(=O)Nc2ccccc2Br)cc1 (centres undefined),inactive: 7.19%
7,Cc1cc(C)cc(OP(C)(=O)Nc2cccc(C(F)(F)F)c2)c1 (centres undefined),inactive: -0.7%
8,O=C1C(O)=C([N+](=O)[O-])C(=O)C(O)=C1[N+](=O)[O-],inactive: 1.21%
9,CP(=O)(OCCOc1ccccc1)OCCOc1ccccc1,inactive: -12.6%
10,CP(=O)(Nc1ccc(Cl)cc1Cl)Oc1ccccc1 (centres undefined),inactive: -9.65%
11,CCCCCCCCCCCCCCCC1C[N+](C)(C)CCOP(C)(=O)O1 (centres undefined),inactive: -9.49%
12,CCOC(=O)c1ccc(NP(C)(=O)Oc2ccc(Cl)cc2)cc1 (centres undefined),inactive: 0.09%
13,CP(=O)(OC12CC3CC(CC(C3)C1)C2)OC12CC3CC(CC(C3)C1)C2,inactive: -0.29%
14,Nc1ccc2c(ccc3cccnc32)n1.O=[N+]([O-])c1cc([N+](=O)[O-])c(O)c([N+](=O)[O-])c1,inactive: 13.8%
15,O=C(OCCCN1CCCC1)C(O)(c1ccccc1)C1CCCCC1 (centres undefined),inactive: 0.08%
16,COc1ccccc1OP(C)(=O)Nc1c(C)n(C)n(-c2ccccc2)c1=O (centres undefined),inactive: 10.8%
17,CCc1ccc(OP(C)(=O)Nc2cccnc2)cc1 (centres undefined),inactive: 0.97%
18,CP(=O)(Oc1ccccc1)N1CCOC1=O (centres undefined),inactive: 9.05%
19,COc1ccc(OP(C)(=O)Nc2ccc(Br)cc2)cc1 (centres undefined),inactive: -4.56%
20,CCN(CC)CC(O)COC(=O)C(O)(c1ccccc1)C1CCCCC1 (centres undefined),inactive: 1.59%
21,CN(C)C(=O)c1c([N+](=O)[O-])cc([N+](=O)[O-])cc1[N+](=O)[O-],inactive: 3.74%
22,CC(C)(C)c1ccc(OP(C)(=O)O)cc1,inactive: -12.9%
23,COc1ccccc1OP(C)(=O)Nc1ccccc1Br (centres undefined),inactive: -4.5%
24,CP(=O)(Nc1ccc(Cl)cc1)Oc1ccc(F)cc1 (centres undefined),inactive: -8.4%
